According to patent US20060263355A1, “Treatment of bone disorders” (priority 2005, published 2006):

Assays:
[1] = Bone effects in chronic OVX animals (Example 8); conditions: chronic OVX rats, treatment for 5 weeks
[2] = Prevention of bone loss in acute OVX animals (Example 7); conditions: OVX rats, 35 days
[3] = Clinical study of rituximab in osteoporosis (Example 3); conditions: osteoporosis patients, IV

humanized 2H7: humanized CD20 antibody, or antigen-binding fragment, comprising at least CDR H3 of SEQ ID NO:12 and human VHIII framework
tests of femurs, tibiae and lumbar vertebrae 1 to 4 versus placebo-treated controls (bone formation) [1]: will show improvement in one or more of these tests
prevention of bone loss versus control groups [2]: effective versus the control groups in preventing bone loss
bone osteoblasts (biomarkers), bone densitometry and fracture rate versus placebo [3]: will improve bone osteoblasts as determined by biomarkers and improve bone densitometry and decrease fracture rate

rituximab
tests of femurs, tibiae and lumbar vertebrae 1 to 4 versus placebo-treated controls (bone formation) [1]: will show improvement in one or more of these tests
prevention of bone loss versus control groups [2]: effective versus the control groups in preventing bone loss
bone osteoblasts (biomarkers), bone densitometry and fracture rate versus placebo [3]: will improve bone osteoblasts as determined by biomarkers and improve bone densitometry and decrease fracture rate
